Measured values published in patent publication US12285421B2, “Uses of a 5-HT4 receptor agonist” (SUVEN LIFE SCIENCES LIMITED, priority 2018, dated 2025).

Tested on: serotonin
Assay: In vivo brain microdialysis, serotonin modulation in ventral hippocampus
Conditions: paroxetine 5 mg/kg, i.p. alone, rat ventral hippocampus
Excerpt: Under isoflurane anesthesia, male Wistar rats (240-300 g body weight) were stereotaxically implanted with a microdialysis guide cannula in ventral hippocampus (AP: −5.2 mm, ML: +5.0 mm, DV: −3.8 mm). Co-ordinates were taken according to atlas for the rat brain (Paxinos and Watson, 2004) with reference points taken from bregma and vertical from the skull. […] One day prior to the microdialysis experiment, rats were connected to a dual quartz lined two-channel liquid swivel (Instech, UK) on a counter balance lever arm, which allowed unrestricted movements of the animal. Approximately sixteen hour before start of study, a pre-equilibrated microdialysis probe (4 mm dialysis membrane) was inserted into the ventral hippocampus through the guide cannula. […] Quantification of serotonin using LC-MS/MS Concentrations of serotonin in dialysates were quantified using LC-MS/MS by the analytical method described in Nirogi et al. [2013] after slight modifications. […] The analytes were quantified using triple quadrupole tandem mass spectrometer in positive ionisation mode using atmospheric pressure ionisation source. […] The statistical significance between the mean AUC values for percent change in neurotransmitter levels of treatment groups with vehicle was calculated using one way ANOVA followed by Dunnetts test. […]

Fc1ccc([C@@H]2CCNC[C@H]2COc2ccc3c(c2)OCO3)cc1 [paroxetine, reference compound]
increase in hippocampal serotonin levels, mean maximum above pre-dose levels: 114%
